Legend:
[1] = tested on: 17-beta-hydroxysteroid dehydrogenase type 2 (Callithrix jacchus); assay: Inhibition of monkey placental microsomal 17beta-HSD2 assessed as inhibition of E1 formation using [2,4,6,7-3H]E2 as substrate at 100 nM after 10 mins by HPLC analysis
Callithrix jacchus = species on record: Callithrix jacchus; assay: Inhibition of monkey placental microsomal 17beta-HSD1 assessed as inhibition of E2 formation using [2,4,6,7-3H]E1 as substrate at 1 uM after 10 mins by HPLC analysis
Homo sapiens = species on record: Homo sapiens; assay: Selectivity ratio of IC50 for human placental cytosolic 17beta-HSD1 to IC50 for human placental microsomal 17beta-HSD2
Procedure, shortened: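 Cytosolic fraction from human placenta (ammonium sulfate precipitated) incubated with NADH 500 μM, test compound and [3H]E1 + E1 (500 nM final), 10 min; workup as for the type 2 assay (HgCl2 stop, ether extraction, HPLC, radiodetection). Mean of three determinations. For line 20, SF = IC50(17β-HSD1)/IC50(17β-HSD2).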

[2] = tested on: 17-beta-hydroxysteroid dehydrogenase type 2 (Callithrix jacchus); assay: Inhibition of monkey placental microsomal 17beta-HSD2 assessed as inhibition of E1 formation using [2,4,6,7-3H]E2 as substrate at 1 uM after 10 mins by HPLC analysis

Oc1ccc(-c2ccc3c(O)cccc3c2)cc1C(F)(F)F
inhibition [1]: 75% | inhibition (Callithrix jacchus): 75% | Ratio IC50 (Homo sapiens): 32 | inhibition [2]: 99%

— ChEMBL document CHEMBL1914369, “Introduction of an electron withdrawing group on the hydroxyphenylnaphthol scaffold improves the potency of 17β-hydroxysteroid dehydrogenase type 2 (17β-HSD2) inhibitors” (J Med Chem, 2011)
